Our source for the activation values is PubChem BioAssay AID504915 (The Scripps Research Institute Molecular Screening Center, 2011).

Protein sequences, listed by entry. Tags and fused reporters are not part of them.
UniProt P47898, whole entry: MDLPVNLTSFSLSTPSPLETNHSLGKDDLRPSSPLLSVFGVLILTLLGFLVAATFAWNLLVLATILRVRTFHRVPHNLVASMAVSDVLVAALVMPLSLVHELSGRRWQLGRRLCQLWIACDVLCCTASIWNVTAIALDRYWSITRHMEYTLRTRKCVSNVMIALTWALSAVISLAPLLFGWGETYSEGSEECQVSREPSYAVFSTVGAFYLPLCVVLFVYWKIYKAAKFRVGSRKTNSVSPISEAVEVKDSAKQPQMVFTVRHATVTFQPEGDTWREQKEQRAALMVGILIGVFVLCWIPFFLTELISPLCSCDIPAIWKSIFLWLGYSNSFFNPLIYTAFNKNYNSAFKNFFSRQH

This experiment deals with 5-hydroxytryptamine receptor 5A (Homo sapiens) (UniProt P47898). The experiment in a line: activation of human 5-HT5A receptor – cell-based, luminescence, confirmation (AID 504915).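 Further: 0% = cells with vehicle only and 100% = full reference agonist response.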 The following applies: HTR5A agonist cell assay, at 9.3 µM, stronger effect = higher value.

SMILES strings stand for the structures. This is a selection; strong and weak results do not stand in their true shares. Activity calls are given as the source filed them. No stated cut-off is given here; in the data, active means activation above about 17%; inactive means the rest.

As to `Cc1ccc(NP(C)(=O)Oc2ccccc2)c(C)c1` (stereo unspecified), the activation is inactive: -3.56%.
